In article PMC3983359 (Journal of Medicinal Chemistry, 2014):

Conditions: 50 µM, human liver microsomes, NADPH, 60 minutes

SMILES: Cc1cc(C)nc(NC(=S)N2CCN(c3ccc(Cl)cc3C(F)(F)F)CC2)c1 [Compound 41, 4-(4-Chloro-2-(trifluoromethyl)phenyl)-N-(4,6-dimethylpyridin-2-yl)piperazine-1-carbothioamide Trifluoroacetate]
- GSH adducts: did not show any GSH adducts

SMILES: COc1ccnc(NC(=S)N2CCN(c3ncc(C(F)(F)F)cc3Cl)CC2)c1 [Compound 55, 4-(3-Chloro-5-(trifluoromethyl)pyridin-2-yl)-N-(4-methoxypyridin-2-yl)piperazine-1-carbothioamide Trifluoroacetate]
- GSH adducts: did not show any GSH adducts

Structures can show the parent of a compound that is named as a salt.
